Measured values from ChEMBL document CHEMBL3286325, “Synthesis and evaluation of three structurally related ¹⁸F-labeled orvinols of different intrinsic activities: 6-O-[¹⁸F]fluoroethyl-diprenorphine ([¹⁸F]FDPN), 6-O-[¹⁸F]fluoroethyl-buprenorphine ([¹⁸F]FBPN), and 6-O-[¹⁸F]fluoroethyl-phenethyl-orvinol ([¹⁸F]FPEO)” (2014).

Sequences of proteins named here, by UniProt entry; tags and fusion partners are left off.
UniProt P35372, whole entry, looked up: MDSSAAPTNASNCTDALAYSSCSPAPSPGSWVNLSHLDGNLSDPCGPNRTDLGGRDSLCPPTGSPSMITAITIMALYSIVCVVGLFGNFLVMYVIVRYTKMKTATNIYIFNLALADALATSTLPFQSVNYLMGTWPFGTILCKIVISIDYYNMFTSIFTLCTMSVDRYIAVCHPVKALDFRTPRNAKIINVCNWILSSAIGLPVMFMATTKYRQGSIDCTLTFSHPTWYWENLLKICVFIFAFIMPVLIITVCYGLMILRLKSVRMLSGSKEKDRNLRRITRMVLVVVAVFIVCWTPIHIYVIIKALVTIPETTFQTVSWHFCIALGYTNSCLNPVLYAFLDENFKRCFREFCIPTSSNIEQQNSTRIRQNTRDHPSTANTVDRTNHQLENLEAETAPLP

Columns and labels:
[1] = tested on: Brain; assay: Metabolic stability in mouse brain assessed as intact compound level after 30 mins; settings: 0.5 h
[2] = tested on: Blood; assay: Metabolic stability in Sprague-Dawley rat blood assessed as intact compound level at 40 to 80 MBq, iv after 20 mins by radio-TLC analysis; settings: strain Sprague-Dawley
[3] = tested on: Serum; assay: Drug uptake in Sprague-Dawley rat serum at 8 to 10 MBq after 5 mins; settings: strain Sprague-Dawley
[4] = tested on: Brain; assay: Metabolic stability in Sprague-Dawley rat brain assessed as remaining compound level at 40 to 80 MBq, iv after 20 mins; settings: in vivo, strain Sprague-Dawley
[5] = tested on: Brain; assay: Metabolic stability in Sprague-Dawley rat brain assessed as intact compound level at 40 to 80 MBq, iv after 20 mins by radio-TLC analysis; settings: in vivo, strain Sprague-Dawley
[6] = tested on: Brain; assay: Metabolic stability in Sprague-Dawley rat brain assessed as remaining compound level at 40 to 80 MBq, iv after 40 mins; settings: in vivo, strain Sprague-Dawley
[7] = tested on: Serum; assay: Drug uptake in Sprague-Dawley rat serum at 40 to 80 MBq, iv after 40 mins; settings: in vivo, strain Sprague-Dawley
[8] = tested on: Brain; assay: Metabolic stability in Sprague-Dawley rat brain assessed as remaining compound level at 40 to 80 MBq, iv after 5 mins; settings: in vivo, strain Sprague-Dawley
[9] = tested on: Brain; assay: Metabolic stability in Sprague-Dawley rat brain assessed as intact compound level at 40 to 80 MBq, iv after 5 mins by radio-TLC analysis; settings: in vivo, strain Sprague-Dawley
[10] = tested on: Blood; assay: Metabolic stability in Sprague-Dawley rat blood assessed as intact compound level at 40 to 80 MBq, iv after 40 mins by radio-TLC analysis; settings: strain Sprague-Dawley
[11] = tested on: Cerebellum; assay: Ratio of SUV of drug uptake in Sprague-Dawley basal ganglia to cerebellum at 16 to 57 GBq/umol, iv up to 85 mins by PET analysis; settings: rat, in vivo, strain Sprague-Dawley
[12] = tested on: Serum; assay: Drug uptake in Sprague-Dawley rat serum at 40 to 80 MBq, iv after 5 mins; settings: in vivo, strain Sprague-Dawley
[13] = tested on: Blood; assay: Metabolic stability in Sprague-Dawley rat blood assessed as intact compound level at 40 to 80 MBq, iv after 5 mins by radio-TLC analysis; settings: strain Sprague-Dawley
[14] = Binding affinity to Sprague-Dawley rat serum protein at 40 to 80 MBq, iv after 40 mins; settings: strain Sprague-Dawley
[15] = tested on: Brain; assay: Metabolic stability in Sprague-Dawley rat brain assessed as intact compound level at 40 to 80 MBq, iv after 40 mins by radio-TLC analysis; settings: in vivo, strain Sprague-Dawley
[16] = molecular target: Mu-type opioid receptor (Homo sapiens, UniProt P35372); settings: cho

Compound `CC(C)(O)[C@H]1C[C@@]23CC[C@@]1(OCC[18F])[C@@H]1Oc4c(O)ccc5c4[C@@]12CCN(CC1CC1)[C@@H]3C5` has a Stability [1] of 80%, a Stability [2] of 6.9% and a Drug uptake [3] of 14%. It also gave a Stability [4] of 92%, a Stability [5] of 98% and a Stability [6] of 93%. The Drug uptake [7] was 29%, the Stability [8] was 94% and the Stability [9] was 94.6%. The Stability [10] was 4.8%, the Ratio [11] was 5.03 and the Drug uptake [12] was 48%. It also gave a Stability [13] of 12.5%, a PB [14] of 9% and a Stability [15] of 96.9%.

`CO[C@]12CC[C@@]3(C[C@@H]1C(C)(C)O)[C@H]1Cc4ccc(O)c5c4[C@@]3(CCN1CC1CC1)[C@H]2O5` showed a Ki [16] of 0.07 nM.
